Measurements from patent US10836728B2, “Substituted 3-dialkylaminomethyl-piperidin-4-yl-benzamides and methods of making and using same” (MEBIAS DISCOVERY, INC., priority 2017, dated 2020).

Tests used:
[1] = system: tail flick response; assay: Rat tail flick nociceptive pain model; type: in vivo; conditions: SC
Protocol: In rodents, the tail flick response to radiant heat is commonly used as a model to detect potentially useful analgesic agents.
Procedurally, the time (seconds) required to elicit a tail flick response induced by focused radiant heat is measured as the pain threshold in groups of 8 Sprague-Dawley (SD) male rats weighing 110±20 g. Prolongation by 50 percent or more (≥50) of the time required to elicit a tail flick response 15 and 30 minutes following administration of test substance indicates possible analgesic activity. Also, one-way ANOVA followed by Dunnett's test is applied for comparison between vehicle control and treatment groups.

[2] = system: intestinal transit; assay: Gastrointestinal motility (charcoal transit); conditions: rat, SC
Protocol: At 30 minutes post subcutaneous dosing, the animals were given a suspension of 5% charcoal in 10% gum arabic solution (2 ml/animal p.o.) and sacrificed 15 minutes later. The intestine was removed, and the length of the gut in cm (GL) as well as extent of charcoal movement from the pylorus to the beginning of the charcoal column in cm (CP) was measured.
Intestinal transit (IT) was calculated as IT=(CP/GL)×100%. A 30% or more (30) increase or decrease intestinal transit (IT), relative to the vehicle control group, was considered significant. The values in animals treated with test compounds compared with vehicle control group were also analyzed by using one-way ANOVA followed by Dunnett's test. Differences are considered statistically significant at P<0.05.

[3] = system: place preference; assay: Conditioned place preference; conditions: rat, SC, 5 mg/kg
[4] = system: sedation; assay: Accelerating RotaRod (sedation); conditions: rat, SC
[5] = Respiratory depression test (O2 partial pressure); conditions: rat, SC, at 30 minutes, vehicle 96 mm Hg

## CN1CC[C@]23c4c5ccc(O)c4O[C@H]2[C@@H](O)C=C[C@H]3[C@H]1C5 [Morphine, reference compound]
[1]
  Dose to reach the ED80 of morphine in rat tail flick: 1 mg/kg
[2]; 1 mg/kg
  Reduction in transit relative to vehicle: small reduction in transit
[2]; 5 mg/kg
  Reduction in transit relative to vehicle: significant reduction in transit
[3]
  Preference for drug chamber over saline chamber: significant preference for the morphine chamber over the saline chamber
[4]; 1 mg/kg
  Sedation, accelerating RotaRod: no sedation
[4]; 5 mg/kg
  Sedation, accelerating RotaRod: significant sedation
[5]; 1 mg/kg
  O2 partial pressure: the same O2 partial pressure as vehicle
[5]; 5 mg/kg
  O2 partial pressure: 74 mm Hg
